Legend:
Cholinesterase [1] = molecular target: T1, Cholinesterase (Homo sapiens, UniProt P06276); assay: Inhibition of human recombinant BChE
Cholinesterase [2] = molecular target: T1, Cholinesterase; assay: Inhibition of human recombinant AChE assessed as dissociation constant for enzyme-inhibitor-substrate complex by Lineweaver-Burk plot

Amino acid sequences for entries named in this document (tags omitted). Residues count along the entry.
UniProt P06276, 29-602 limits assumed: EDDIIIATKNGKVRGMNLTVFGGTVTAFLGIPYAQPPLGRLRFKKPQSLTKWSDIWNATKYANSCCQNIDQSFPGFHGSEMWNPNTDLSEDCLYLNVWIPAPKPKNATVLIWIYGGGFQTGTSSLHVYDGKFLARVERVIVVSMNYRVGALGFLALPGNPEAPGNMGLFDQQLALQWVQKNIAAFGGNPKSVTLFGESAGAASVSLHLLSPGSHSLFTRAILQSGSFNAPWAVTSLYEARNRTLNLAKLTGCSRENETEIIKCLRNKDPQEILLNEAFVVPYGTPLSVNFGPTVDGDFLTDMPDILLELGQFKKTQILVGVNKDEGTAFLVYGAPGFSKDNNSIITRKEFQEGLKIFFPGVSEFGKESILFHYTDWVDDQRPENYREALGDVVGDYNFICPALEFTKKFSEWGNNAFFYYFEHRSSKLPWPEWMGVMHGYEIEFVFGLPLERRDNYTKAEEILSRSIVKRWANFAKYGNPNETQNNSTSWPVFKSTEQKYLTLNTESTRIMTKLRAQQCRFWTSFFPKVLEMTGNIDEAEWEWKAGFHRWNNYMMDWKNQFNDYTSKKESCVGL

Q: `CC(C)(C)c1cc[n+](CCOCC[n+]2ccc(C(C)(C)C)cc2)cc1` was tested. Which IC50 (Cholinesterase [1]) did it give?
A: 0.241 mM

Q: For `CC(C)(C)c1cc[n+](/C=C2\C=CC3=CC/C(=C\[n+]4ccc(C(C)(C)C)cc4)C=C3C2)cc1`, which Ki (Cholinesterase [2]) is on record?
A: 0.0001 mM

Q: Which IC50 (Cholinesterase [1]) does the source give for `O=NCc1cc[n+](COC[n+]2ccc(CN=O)cc2)cc1` here?
A: 1.91 mM

Q: For `CCN(CC)C(C)CN1c2ccccc2Sc2ccccc21` (centres undefined), which Ki (Cholinesterase [2]) is on record?
A: 12.1 mM

From BindingDB's records for 21144749
